The term inhibition denotes the drop in the measured response relative to a control, in per cent.

The entries are a selection whose mix differs from that of the whole data set. The source made the active and inactive calls.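 The calls were made as follows: active = inhibition above the mean inhibition of all tested compounds plus 3 SD (cut at about 17% in these data); inactive = the rest.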

The test has as its target Troponin I, cardiac muscle (Homo sapiens) + Troponin T, cardiac muscle (Homo sapiens) + Troponin C, slow skeletal and cardiac muscles (Homo sapiens) (UniProt P19429+P45379+P63316). The experiment in a line: calcium desensitizers of cardiac thin filaments – biochemical, IANBD-TnC fluorescence, EC70 calcium, primary screen (AID 493244).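 Also: assay run at fixed EC70 calcium of 1.6 mM.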 The settings on record: IANBD-labeled cardiac RTF, Ca2+ fluorescence; at 7.15 µM; stronger effect = higher value.
As for `CP(=O)(Nc1ccc(SC(F)(F)F)cc1)Oc1ccccc1` (stereo unspecified), the inhibition was inactive: 5.24%.
The value for `COc1ccccc1OP(C)(=O)Nc1c(C)cccc1C` (stereo unspecified) was inactive: 5.81%.
For `CN1CCCCC1COC(=O)C1(O)c2ccccc2CCc2ccccc21` (stereo unspecified) the value was inactive: 1.99%; for `CC1=C2N=C(C=C3N=C(C(C)=C4[N-][C@@](C)([C@@H]5N=C1[C@](C)(CCC(=O)NC[C@@H](C)OP(=O)([O-])O[C@H]1[C@@H](O)[C@@H](n6cnc7cc(C)c(C)cc76)O[C@@H]1CO)[C@H]5CC(N)=O)[C@@](C)(CC(N)=O)[C@@H]4CCC(N)=O)[C@@](C)(CC(N)=O)[C@@H]3CCC(N)=O)C(C)(C)[C@@H]2CCC(N)=O.[C-]#N.[Co+3]`, inactive: 1.19%; for `O=[N+]([O-])c1cc([N+](=O)[O-])c(Nc2nnnn2CCO)c([N+](=O)[O-])c1`, inactive: -7.29%.
For `CCOC(=O)C(CC)C1=NC(C)(C)Cc2ccccc21.O=[N+]([O-])c1cc([N+](=O)[O-])c(O)c([N+](=O)[O-])c1` (stereo unspecified) the value was inactive: 5.24%.
`Cc1nc2ccc3ccccc3c2s1.O=[N+]([O-])c1cc([N+](=O)[O-])c(O)c([N+](=O)[O-])c1`: the inhibition is inactive: -10.3%.
For `O=[N+]([O-])c1cc([N+](=O)[O-])c(-c2cnn(-c3ccccc3)c2)c([N+](=O)[O-])c1` the value was inactive: 6.37%; for `O=[N+]([O-])c1cc([N+](=O)[O-])c(-n2nnc3ccccc32)c([N+](=O)[O-])c1`, inactive: -4.53%; for `CP(=O)(Nc1ccccn1)Oc1ccc(Cl)cc1` (stereo unspecified), inactive: 2.11%.
For the molecule `CCOP(C)(=S)SCC(=O)NC(C)C(=O)O` (stereo unspecified), the inhibition is inactive: -2.77%.
The value for `CCOC(=O)c1ccc(NP(C)(=O)Oc2ccc(OC)cc2)cc1` (stereo unspecified) was inactive: -7.98%; that for `CP(=O)(NC(=O)Nc1ccccc1)Oc1ccccc1` (stereo unspecified) was inactive: 5.89%.
For `CCc1ccc(OP(C)(=O)N2CCN(c3ccc([N+](=O)[O-])cc3)CC2)cc1` (stereo unspecified) the value was inactive: 2.36%; for `Cc1cc(C)cc(OP(C)(=O)Nc2ccc(SC(F)(F)F)cc2)c1` (stereo unspecified), inactive: -9.56%.
With `Cc1cccc(C)c1OP(C)(=O)Nc1ccc(SC(F)(F)F)cc1` (stereo unspecified), the inhibition was inactive: 7.75%.
For `CP(=O)(Oc1ccccc1)OC(c1ccccc1)C(F)(F)F` (stereo unspecified) the value was inactive: -10.6%; for `COc1ccccc1OP(C)(=O)Nc1ccccc1` (stereo unspecified), inactive: -1.94%; for `CP(=O)(Nc1ccccc1Br)Oc1ccccc1` (stereo unspecified), inactive: 2.09%.
For `CP(=S)(Nn1cnnc1)Oc1ccccc1` (stereo unspecified) the value was inactive: -1.39%; for `COc1ccccc1OP(C)(=O)Nc1cc(Cl)ccc1C` (stereo unspecified), inactive: -11%.
The value for `COc1ccc(OP(C)(=O)Nc2cccc(F)c2)cc1` (stereo unspecified) was inactive: 2.57%; that for `Cc1cc(C)cc(OP(C)(N)=O)c1` (stereo unspecified) was inactive: 1.2%; that for `CCOC(=O)c1ccc(NP(C)(=O)Oc2ccccc2)cc1` (stereo unspecified) was inactive: 1.94%.
Take `COc1ccccc1OP(C)(=O)Nc1ccc(C)cc1` (stereo unspecified): the inhibition is inactive: -5.16%.
The value for `Cc1ccc(NP(C)(=O)Oc2ccccc2)c(C)c1` (stereo unspecified) was inactive: -1.37%.
For `CC(C)(C)c1ccc(OP(C)(=O)Nc2ccc(SC(F)(F)F)cc2)cc1` (stereo unspecified) the value was inactive: 0.5%; for `Cc1cccc(C)c1OP(C)(N)=O` (stereo unspecified), inactive: 6.54%.
The value for `O=[N+]([O-])c1ccc2c(c1)C=Nc1ccccc1O2` was inactive: 3.11%.
For the molecule `O=[N+]([O-])c1cc([N+](=O)[O-])c(Nc2cccnc2)c([N+](=O)[O-])c1`, the inhibition was inactive: -14.2%.
For `CCN(CC)CCCOC(=O)C(O)(c1ccccc1)c1ccccc1` the value was inactive: 0.89%.

For the origin of these results see PubChem BioAssay AID493244 (The Scripps Research Institute Molecular Screening Center, 2011).
